Source: patent publication US6022307A, “Substituted dibenzothiophenes having antiangiogenic activity” (American Cyanamid Company, priority 1999, dated 2000)

Tests used:
BAE cells = experiment: Inhibition of binding of 125I-VEGF 165 to BAE cells; format: cell-based, bovine; details: inhibition of 125I-VEGF 165 binding to BAE cells; for IC50: Bos taurus, read-out: Cell Assay VEGF 165 IC50 BAE
Flt-1 = Flt-1 (Homo sapiens, UniProt P17948); experiment: Inhibition of Binding of VEGF 165 to Flt-1 Receptor as Measured by SPA Assay; details: inhibition of 125I-VEGF 165 binding to soluble Flt-1-Fc
HUVEC cells = experiment: Inhibition of binding of 125I-VEGF 165 to HUVEC cells; format: cell-based; details: Homo sapiens; inhibition of 125I-VEGF 165 binding to HUVEC cells; read-out: Cell Assay VEGF 165 IC50 HUVEC
[1] = read-out: SPA Assay Flt-1 IC50 VEGF 165 (converted)

IC50 (BAE cells) [µg/mL]	IC50 (Flt-1; [1]) [nM]	SMILES	further results
0.088	1380	Cc1ccc(C)c(/C=C/C(=O)Nc2cc3c(cc2S(=O)(=O)O)-c2cc(S(=O)(=O)O)c(NC(=O)/C=C/c4cc(C)ccc4C)cc2S3(=O)=O)c1 [Example 35, 3,7-Bis-[3-(2,5-dimethylphenyl)-acryloylamino]-5,5-dioxo-5H-5^6-dibenzothiophene-2,8-disulfonic acid, disodium]	–
0.37	1750	COc1ccc(/C=C/C(=O)Nc2cc3c(cc2S(=O)(=O)O)-c2cc(S(=O)(=O)O)c(NC(=O)/C=C/c4ccc(OC)c(OC)c4Cl)cc2S3(=O)=O)c(Cl)c1OC [Example 27, 3,7-Bis[3-(2-chloro-3,4-di-methoxyphenyl)-acryloylamino]-5,5-dioxo-5H-5^6-dibenzothiophene-2,8-disulfonic acid, disodium salt]	–
0.6	1720	COc1ccc(/C=C/C(=O)Nc2cc3c(cc2S(=O)(=O)O)-c2cc(S(=O)(=O)O)c(NC(=O)/C=C/c4ccc(OC)cc4)cc2S3(=O)=O)cc1 [Example 30, 3,7-Bis-[3-(4-methoxyphenyl)-acryloylamino]-5,5-dioxo-5H-5^6-dibenzothiophene-2,8-disulfonic acid, disodium salt]	IC50 (HUVEC cells): 1.2 µg/mL
1.9	–	CC(C)c1ccc(/C=C/C(=O)Nc2cc3c(cc2S(=O)(=O)O)-c2cc(S(=O)(=O)O)c(NC(=O)/C=C/c4ccc(C(C)C)cc4)cc2S3(=O)=O)cc1 [Example 36, 3,7-Bis-[3-(4-isopropylphenyl)-acryloylamino]-5,5-dioxo-5H-5^ -dibenzothiophene-2,8-disulfonic acid, disodium]	–
0.28	–	O=C(/C=C/c1cccc2ccccc12)Nc1cc2c(cc1S(=O)(=O)O)-c1cc(S(=O)(=O)O)c(NC(=O)/C=C/c3cccc4ccccc34)cc1S2(=O)=O [Example 26, 3,7-Bis-(3-naphthalen-1-yl-acryloylamino)-5,5-dioxo-5H-5^6-dibenzothiophene-2,8-disulfonic acid, disodium salt]	–
0.88	–	COc1cc(NC(C)=O)ccc1C(=O)Nc1cc2c(cc1S(=O)(=O)O)-c1cc(S(=O)(=O)O)c(NC(=O)c3ccc(NC(C)=O)cc3OC)cc1S2(=O)=O [Example 59, 3,7-Bis-[(4-acetylamino-2-methoxy-phenyl)carbonylamino]-5,5-dioxo-5H-5^6-dibenzothiophene-2,8-disulfonic acid, disodium salt]	–
2.7	–	O=C(Nc1cc2c(cc1S(=O)(=O)O)-c1cc(S(=O)(=O)O)c(NC(=O)c3cc4ccccc4s3)cc1S2(=O)=O)c1cc2ccccc2s1 [Example 40, 3,7-Bis-[(benzo[b]thiophene-2-carbonyl)amino]-5,5-dioxo-5H-5^ -dibenzothiophene-2,8-disulfonic acid, disodium]	–
0.68	3930	Cc1nn(C)c2sc(C(=O)Nc3cc4c(cc3S(=O)(=O)O)-c3cc(S(=O)(=O)O)c(NC(=O)c5cc6c(C)nn(C)c6s5)cc3S4(=O)=O)cc12 [Example 44, 3,7-Bis-[(1,3-di-methyl-1H-thieno[2,3-c]pyrazole-5-carbonyl)amino]-5,5-dioxo-5H-5^6-dibenzothiophene-2,8-disulfonic acid, disodium salt]	–
0.42	–	N#Cc1ccc(/C=C/C(=O)Nc2cc3c(cc2S(=O)(=O)O)-c2cc(S(=O)(=O)O)c(NC(=O)/C=C/c4ccc(C#N)cc4)cc2S3(=O)=O)cc1 [Example 32, 3,7-Bis-[3-(4-cyanophenyl)-acryloylamino]-5,5-dioxo-5H-5^6-dibenzothiophene-2,8-disulfonic acid, disodium salt]	–

Second part, the compound before the results:

SMILES	IC50 (BAE cells) [µg/mL]	IC50 (Flt-1; [1]) [nM]	further results
O=C(Nc1cc2sc3cc(NC(=O)c4cc5ccccc5s4)c(C(=O)O)cc3c2cc1C(=O)O)c1cc2ccccc2s1 [Example 2, 3,7-Bis-r(benzo[b]thiophene-2-carbonyl)amino]dibenzothiophene-2,8-dicarboxylic acid, disodium salt]	2.5	642	–
CCOP(=O)(O)c1cc2c(cc1NC(=O)c1cc3ccccc3s1)S(=O)(=O)c1cc(NC(=O)c3cc4ccccc4s3)c(P(=O)(O)OCC)cc1-2 [Example 23a, [3,7-Bis[(benzo[b]thiophene-2-carbonyl)amino-8-(ethoxyhydroxyphosphoryl)-5,5-dioxo-5H-5λ^6-dibenzothiophen-2-yl]phosphonic acid monoethyl ester, disodium salt]	0.67	–	IC50 (Flt-1; read-out: SPA Assay Flt-1 IC50 VEGF 165): 2590 nM
O=C(Nc1cc2sc3cc(NC(=O)c4cc5sccc5s4)c(C(=O)[O-])cc3c2cc1C(=O)[O-])c1cc2sccc2s1.[Na+].[Na+] [Example 5, 3,7-Bis[(thieno[3,2-b]thien-2-ylcarbonyl)amino]dibenzothiophene-2,8-dicarboxylic acid, disodium salt]	2.2	–	–
COc1ccccc1C=CC(=O)Nc1cc2c(cc1S(=O)(=O)[O-])-c1cc(S(=O)(=O)[O-])c(NC(=O)C=Cc3ccccc3OC)cc1S2(=O)=O.[Na+].[Na+] [Example 37, 3,7-Bis-[3-(2-methoxyphenyl)-acryloylamino]-5,5-dioxo-5H-5^6-dibenzothiophene-2,8-disulfonic acid, disodium salt]	–	–	Cell Assay VEGF 165 IC50 BAE (BAE cells): 0.32 µg/mL
COc1ccc(C=CC(=O)Nc2cc3sc4cc(NC(=O)C=Cc5ccc(OC)c(OC)c5Cl)c(C(=O)[O-])cc4c3cc2C(=O)[O-])c(Cl)c1OC.[Na+].[Na+] [disodium salt]	–	6280	–
CCOP(=O)(O)c1cc2c(cc1NC(=O)c1ccc3cc4ccccc4cc3c1)S(=O)(=O)c1cc(NC(=O)c3ccc4cc5ccccc5cc4c3)c(P(=O)(O)OCC)cc1-2 [Example 22, [3,7-Bis-[(anthracene-2-carbonyl)amino]-8-(ethoxyhydroxy-phosphoryl)-5,5-dioxo-5H-5^6-dibenzothiophen-2-yl]-phosphonic acid mono-ethyl ester, disodium salt]	0.068	–	–
COc1ccc(/C=C/C(=O)Nc2cc3sc4cc(NC(=O)/C=C/c5ccc(OC)cc5)c(C(=O)O)cc4c3cc2C(=O)O)cc1 [Example 12, 3,7-Bis{[3-(4-methoxyphenyl)acryloylamino]-dibenzothiophene-2,8-dicarboxylic Acid, disodium salt]	10	–	–
CCOP(=O)(O)c1cc2c(cc1NC(=O)/C=C/c1ccc(OC)cc1)S(=O)(=O)c1cc(NC(=O)/C=C/c3ccc(OC)cc3)c(P(=O)(O)OCC)cc1-2 [Example 20, [3,7-Bis-[4-methoxyphenyl]-acryloylamino]-8-(ethoxyhydroxy-phosphoryl)-5,5-dioxo-5H-5^6-dibenzothiophen-2-yl]-phosphonic acid monoethyl ester, disodium salt]	2.3	–	–
O=C(Nc1cc2c(cc1S(=O)(=O)O)-c1cc(S(=O)(=O)O)c(NC(=O)c3cc4sccc4s3)cc1S2(=O)=O)c1cc2sccc2s1 [Example 43, 5,5-Dioxo-3,7-bis-[(thieno[3,2-b]thiophene-2-carbonyl)-amino]-5H-5^6-dibenzothiophene-2,8-disulfonic acid, disodium]	0.35	1350	–
O=C(Nc1cc2c(cc1S(=O)(=O)O)-c1cc(S(=O)(=O)O)c(NC(=O)c3ccc4cc5ccccc5cc4c3)cc1S2(=O)=O)c1ccc2cc3ccccc3cc2c1 [Example 54, 3,7-Bis-(anthracen-2-ylcarbonylamino)-5,5-dioxo-5H-5^6-dibenzothiophene-2,8-disulfonic acid, disodium salt]	0.1	184	IC50 (HUVEC cells): 0.18 µg/mL
CCOP(=O)(O)c1cc2c(cc1NC(=O)/C=C/c1ccc(OC)c(OC)c1Cl)S(=O)(=O)c1cc(NC(=O)/C=C/c3ccc(OC)c(OC)c3Cl)c(P(=O)(O)OCC)cc1-2 [Example 19, [3,7-Bis-[3-(2-chloro-3,4-dimethoxyphenyl)acryloylamino]-8-(ethoxyhydroxyphosphoryl)-5 .5-dioxo-5H-5λ^6-dibenzothiophen-2-yl]phosphonic acid monoethyl ester, disodium salt]	0.59	–	–
CCCc1c(C(=O)Nc2cc3c(cc2S(=O)(=O)O)-c2cc(S(=O)(=O)O)c(NC(=O)c4cnn(-c5ccc(Cl)cc5)c4CCC)cc2S3(=O)=O)cnn1-c1ccc(Cl)cc1 [Example 45, 3,7-Bis-{[1-(4-chlorophenyl)-5-propyl-1H-pyrazole-4-carbonyl]amino}5,5-dioxo-5H-5^6-dibenzothiophene-2,8-disulfonic acid, disodium salt]	1.6	–	–

Counter-ions that a name gives are not always drawn. Like-named read-outs stand apart in the source and are kept apart here.
